uPA surface inh = blocks generation of uPA at the cell surface. AID 540303. 0.31% of 330,000 active. cell surface uPA generation assay, qHTS. Potency, µM (highest dose often 38.3 µM), most hits filed as inhibitors; active = well fitted inhibition curve with a large enough effect; inconclusive = small, poorly fitted or top-dose-only effect; inactive = no such curve, though single readings can be large or run the other way; tested in mouse RAW 264.7 cells; note: nearly all actives have a fitted effect of over 55% in size
DT40 TDP1 no CPT = qHTS for Inhibitors of human tyrosyl-DNA phosphodiesterase 1 (TDP1): qHTS in cells in absence of CPT; DT40 Tdp1-/- hTDP1 cells, no CPT, ATP luminescence, 48 h; Potency, µM (titrated, usually from 46.2 µM), usual class: inhibitors; 15% of 420,000 active; note: nearly all actives have a fitted effect of over 55% in size
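Chicken DT40 Tdp1-/- cells complemented with human TDP1, screened without camptothecin (DMSO vehicle only), 400 cells/well. Compounds pin-transferred, cells incubated at 37 °C for at least 48 hr. Growth read as ATP-dependent luminescence (CellTiter-Glo, 30 min at RT).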
miR-21 reporter = miR-21 reporter, rising signal | AID 2288 | HeLa miR-21 FLuc reporter, luciferase, 48 h | 340,000 tested, under 10 active | Potency, µM (doses to about 38.3 µM); active = well fitted rising curve with a large enough effect; inconclusive = small, poorly fitted or top-dose-only effect; inactive = no such curve, though single readings can be large or run the other way;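 note: miR-21 action dims this reporter so a rising signal means less miR-21 action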
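HeLa cells stably expressing CMV-driven firefly luciferase with a downstream miR-21 binding sequence, endogenously expressing miR-21, were treated with titrations (up to about 40uM final) for 48 hours at 37 degree Celsius. Luciferase luminescence was read after lysis.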
TDP1 inh = inhibitors of human tyrosyl-DNA phosphodiesterase TDP1; Q9NUW8; recombinant TDP1, AlphaScreen DNA substrate cleavage; Potency, µM (titrated, usually from 130 µM), most hits filed as inhibitors; 0.28% of 350,000 active; note: nearly all actives have a fitted effect of over 40% in size
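Recombinant E. coli-expressed Tdp1 (1 nM) preincubated with compound 15 min at RT, then 5'-biotin/3'-phosphotyrosine-FITC DNA substrate (15 nM) added for 5 min. AlphaScreen beads (10 ug/ml) added, 10 min RT; tyrosine-FITC cleavage read as signal loss.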
DT40 TDP1 CPT = growth inhibition of DT40 Tdp1-/-;hTDP1 cells with camptothecin (screen for TDP1 inhibitors) | chicken DT40 Tdp1-/-;hTDP1 cells + 20 nM CPT, ATP luminescence, 48 h | Potency, µM (series often up to 46.2 µM), hits mostly inhibitors | 12% of 420,000 active; note: nearly all actives have a fitted effect of over 55% in size
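Chicken DT40 Tdp1-/- cells stably complemented with human TDP1 were seeded at 400 cells/well in medium containing 20 nM camptothecin, exposed to pin-transferred compounds, and grown at 37 °C for at least 48 hr. Viability was read as ATP luminescence.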
Hits are given with their value; . = inactive; ? = inconclusive; / = not tested or not shown; [ ] = remark or other dose. An excerpt weighted towards active compounds, which were near 16% of everything screened. Unless noted, calls come from the whole dose curve; as a rule, active = well fitted curve in the direction sought with a large enough effect; inconclusive = small, poorly fitted or top-dose-only effect, or another doubt; inactive = no such curve, though single readings can be large; an effect the other way counts as inactive or inconclusive.

SMILES	uPA surface inh	DT40 TDP1 no CPT	miR-21 reporter	TDP1 inh	DT40 TDP1 CPT
COc1ccc(S(=O)(=O)N2CCOCC2)cc1NC(=O)CSc1nnc(C2CC2)n1C	.	.	/	.	.
CCN(CC)C(CNC(=O)CSc1nnnn1-c1c(C)cccc1C)c1ccco1 (configuration not stated)	.	?	/	.	?
COc1cc(C2C(C#N)=C(N)OC3=C2C(=O)CCC3)cc(OC)c1OC(=O)N1CCOCC1 (configuration not stated)	.	.	.	.	.
CC1CC(C)(C)Nc2ccc(N=O)cc21 (configuration not stated)	.	1.84µM	?	.	2.31µM
CN(C)C(CNC(=O)CCCN1C(=O)c2cccc3cccc(c23)C1=O)c1ccccc1 (configuration not stated)	.	?	.	.	?
COc1cccc(CNC(=O)CCC2CCCN(c3cc(C)nc(N4CCCC4)n3)C2)c1 (configuration not stated)	.	?	.	/	?
COc1ccc(C[C@H]2CN3C(=NC[C@@H]3Cc3ccccc3)N2CCNC(=O)c2ccc(C)c(Br)c2)cc1	.	20.6µM	.	.	23.1µM
COc1ccc(C[C@H]2CN3C(=NC[C@H]3Cc3ccccc3)N2CCNC(=O)c2ccc(C)c(Br)c2)cc1	.	14.6µM	?	.	20.6µM
COc1ccc(C[C@H]2CN3C(=NC[C@H]3Cc3ccccc3)N2CCNC(=O)CCC2CCCCC2)cc1	.	25.9µM	.	.	?
C/C=C(\C)C(=O)NCCN1C2=NC[C@@H](C)N2C[C@@H]1Cc1ccc(OC)cc1	.	.	.	.	.
C[C@@H](CN1C2=NC[C@H](Cc3ccccc3)N2C[C@H]1Cc1ccc(O)cc1)NC(=O)CCC1CCCCC1	.	11.6µM	.	.	7.31µM
C/C=C(\C)C(=O)NCCN1C2=NC[C@H](Cc3ccccc3)N2C[C@@H]1Cc1ccc(OC)cc1	.	?	/	/	?
COc1ccc(C[C@H]2CN3C(=NC[C@@H]3Cc3ccccc3)N2C[C@H](C)NC(=O)CCC2CCCCC2)cc1	/	/	.	/	/
COc1cccc(COC(=O)c2sc3nc4n(c(=O)c3c2C)CCC4)c1OC	.	?	/	.	.
Cc1ccc(-c2nc(CNC(=O)NC3CCCCC3)c(C)o2)cc1	/	.	.	.	.
C=CCN1C(=O)c2ccc(C(=O)OCC(=O)N3CCN(c4ccccc4)CC3)cc2C1=O	.	.	/	/	.
CCCCC(OC(=O)c1cc2occc2n1C)C(=O)NCC1CCCO1 (configuration not stated)	.	.	.	.	.
COC(Cc1n[nH]c(=S)n1-c1ccccc1)OC	/	.	.	?	.
Cc1ccc(S(=O)(=O)/N=C(\Sc2ccccc2)c2ccccc2)cc1	/	6.51µM	.	.	5.8µM
O=S(=O)(/N=C(\Sc1ccccc1)c1ccccc1)c1ccc(Cl)cc1	/	11.2µM	.	.	12.6µM
O=S(=O)(/N=C(\c1ccccc1)N1CCOCC1)c1ccc(Cl)cc1	.	.	.	.	?
Cc1ccc(S(=O)(=O)/N=C(\c2ccccc2)N(C)S(=O)(=O)c2ccccc2)cc1	.	?	.	.	.
COc1ccccc1N/C(=N/S(=O)(=O)c1ccc(C)cc1)c1ccccc1	.	18.4µM	.	.	?
Cc1cc(C)c2c(c1)NC(c1cc3c(cc1Br)OCO3)C1CC=CC21 (configuration not stated)	.	?	.	.	.
CC(=O)c1cccc(NS(=O)(=O)c2cccc(S(=O)(=O)c3ccc(Br)cc3)c2)c1	/	?	.	.[12.3 µM]	?
SMILES	uPA surface inh	DT40 TDP1 no CPT	miR-21 reporter	TDP1 inh	DT40 TDP1 CPT
CCc1ccc(CNC(=O)CN2C(=O)CCn3nc(-c4cn(C)c5ccccc45)cc32)cc1	/	.	.	.	16.4µM
Cn1cc(-c2cc3n(n2)CCC(=O)N3CCCC(=O)NCc2ccc(F)cc2)c2ccccc21	/	?	.	.	16.4µM
CCCSCCCNC(=O)CN1C(=O)CCn2nc(-c3cn(C)c4ccccc34)cc21	/	?	.	.	?
O=C(Cn1cnc2c(nnn2Cc2ccc(F)cc2)c1=O)Nc1ccc2c(c1)OCCO2	.	.	.	.	.
CC(=O)c1cccc(NC(=O)COC(=O)Cc2ccc(Cl)cc2)c1	.	.	/	.	.
COc1ccc(/C=C\c2onc(C)c2S(=O)(=O)N2CCC(C(=O)Nc3ccc(C)c(F)c3)CC2)cc1	/	6.51µM	.	.	5.17µM
Cc1ccc(CNC(=O)C2CCN(S(=O)(=O)c3c(C)noc3/C=C/c3c(C)cc(C)cc3C)CC2)cc1	/	?	.	.	?
Cc1cc(C)c(/C=C/c2onc(C)c2S(=O)(=O)N2CCC(C(=O)N(C)Cc3ccccc3)CC2)c(C)c1	/	?	.	.	?
CCc1cccc(C)c1NC(=O)C1CCN(S(=O)(=O)c2c(C)noc2/C=C/c2c(C)cc(C)cc2C)CC1	/	10.3µM	.	.	?
Cc1ccc(N(C)C(=O)C2CCN(S(=O)(=O)c3c(C)noc3/C=C/c3c(C)cc(C)cc3C)CC2)cc1	/	20.6µM	.	.	?
COc1cc(NC(=O)C2CCN(S(=O)(=O)c3c(C)noc3/C=C/c3c(C)cc(C)cc3C)CC2)cc(OC)c1	/	.	.	.	13µM
CCOC(=O)C(=CNc1ccc(Oc2cncc(Cl)c2)nc1)C(=O)OCC	.	?	.	/	.
Cc1cccc(NCN2C(=O)C3C4C=CC(C4)C3C2=O)c1 (configuration not stated)	.	.	.	.	.
CC(C)(C)OC(=O)NCc1ccc(CNC(=O)c2nc[nH]c2C(=O)N2CCN(C(=O)OC(C)(C)C)CC2)cc1	.	18.4µM	/	.	?
CC(C)(C)OC(=O)NCc1ccc(NC(=O)c2nc[nH]c2C(=O)NCCCCNC(=O)c2[nH]cnc2C(=O)Nc2ccc(CNC(=O)OC(C)(C)C)cc2)cc1	.	2.91µM	/	.	4.11µM
Cc1ccc(NC(=O)c2nc[nH]c2C(=O)N2CCN(C(=O)OC(C)(C)C)CC2)cc1	.	?	/	.	?
CC(C)(C)OC(=O)NCc1ccc(NC(=O)c2nc[nH]c2C(=O)NCCCCCCNC(=O)c2[nH]cnc2C(=O)Nc2ccc(CNC(=O)OC(C)(C)C)cc2)cc1	.	5.8µM	/	.	5.8µM
CC(C)(C)OC(=O)NCc1ccc(NC(=O)c2nc[nH]c2C(=O)NCCN(CCNC(=O)c2[nH]cnc2C(=O)Nc2ccc(CNC(=O)OC(C)(C)C)cc2)CCNC(=O)c2[nH]cnc2C(=O)Nc2ccc(CNC(=O)OC(C)(C)C)cc2)cc1	.	.	/	.	?
CC(C)(C)OC(=O)NCCCC[C@H](NC(=O)c1[nH]cnc1C(=O)Nc1ccc(CNC(=O)OC(C)(C)C)cc1)C(=O)OC(C)(C)C	.	4.61µM	?	.	5.8µM

Screens deposited in PubChem by National Center for Advancing Translational Sciences (NCATS).
